# Molecular target: T1, sRAGE (Homo sapiens, UniProt Q15109)
# By UniProt entry, the sequences of proteins in these tests, tags left out. Residues count along the entry.
# UniProt Q15109, 23-342 limits assumed: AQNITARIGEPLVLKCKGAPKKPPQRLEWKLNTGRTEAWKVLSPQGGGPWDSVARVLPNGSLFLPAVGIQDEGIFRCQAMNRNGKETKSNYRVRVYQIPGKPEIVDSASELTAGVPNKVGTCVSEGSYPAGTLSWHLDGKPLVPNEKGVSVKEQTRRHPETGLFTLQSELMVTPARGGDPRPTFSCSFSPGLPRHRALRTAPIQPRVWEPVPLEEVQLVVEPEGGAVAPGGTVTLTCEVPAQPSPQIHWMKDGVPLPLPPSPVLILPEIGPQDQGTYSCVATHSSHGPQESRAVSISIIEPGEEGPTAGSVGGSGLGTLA
# T1 construct: the soluble extracellular part of RAGE (sRAGE); purchased Abcam
# Assay: Microscale thermophoresis, interaction with sRAGE
# Format: binding
# Details: MST; 50 nM labeled sRAGE; peptide dissolved in PBS, 38.1 nM to 1.25 mM; 4% DMSO, 20% glycerol
compound,measurement,value
CC(C)[C@H](NC(=O)[C@H](CCC(=O)O)NC(=O)[C@H](Cc1ccc(O)cc1)NC(=O)CNC(=O)[C@H](CO)NC(=O)[C@H](CC(=O)O)NC(=O)[C@H](Cc1c[nH]cn1)NC(=O)[C@H](CCCNC(=N)N)NC(=O)[C@H](Cc1ccccc1)NC(=O)[C@H](CCC(=O)O)NC(=O)[C@H](C)NC(=O)[C@@H](N)CC(=O)O)C(=O)N[C@@H](Cc1c[nH]cn1)C(=O)N[C@@H](Cc1c[nH]cn1)C(=O)N[C@@H](CCC(N)=O)C(=O)N[C@@H](CCCCN)C(=O)O [Aβ1 − 16],interaction with sRAGE,not detected

# From PMC10954796, “Post-translational modifications of beta-amyloid alter its transport in the blood-brain barrier in vitro model” (Frontiers in Molecular Neuroscience, 2024)
